# Experimental data reported in paper PMC10681007, “Targeted Degradation of XIAP is Sufficient and Specific to Induce Apoptosis in MYCN-overexpressing High-risk Neuroblastoma” (Cancer Research Communications, 2023).
# Protein sequences, listed by entry. Tags and fused reporters are not part of them.
# UniProt P98170, whole entry: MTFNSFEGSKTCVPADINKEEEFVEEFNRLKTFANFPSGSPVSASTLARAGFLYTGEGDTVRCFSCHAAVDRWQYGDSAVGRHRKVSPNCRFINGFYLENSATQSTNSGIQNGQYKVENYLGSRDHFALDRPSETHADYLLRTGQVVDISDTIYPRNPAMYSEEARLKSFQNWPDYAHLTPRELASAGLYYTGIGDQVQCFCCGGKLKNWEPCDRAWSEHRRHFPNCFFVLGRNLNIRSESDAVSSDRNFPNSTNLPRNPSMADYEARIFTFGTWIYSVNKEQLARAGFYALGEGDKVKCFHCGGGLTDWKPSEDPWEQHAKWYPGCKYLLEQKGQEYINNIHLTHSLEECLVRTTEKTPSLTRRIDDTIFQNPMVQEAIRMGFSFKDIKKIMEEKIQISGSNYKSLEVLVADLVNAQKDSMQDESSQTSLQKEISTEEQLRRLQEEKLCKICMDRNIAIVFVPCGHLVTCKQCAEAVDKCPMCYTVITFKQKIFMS
# Read-outs that look alike come from different tables or passages of the source.
# Experiments:
# [1] = test system: BE(2)-C and KELLY cells; experiment: Apoptosis (cleaved PARP/caspase-3, Caspase-Glo 3/7); conditions: 10 µmol/L
# Procedure: The determination of caspase-3/7 levels as an indication for apoptosis activity was performed using a Caspase-Glo 3/7 assay kit from Promega according to manufacturer's instructions. Cells were seeded at 1 × 10^4 cells per well and treated with 10 µmol/L of IAP antagonists for various indicated timings, followed by bioluminescence measurement using luminescent plate reader, Tecan Infinite200 Pro. The activity of apoptosis was also measured by flow cytometry using the Dead Cell Apoptosis Kit with Annexin V FITC and PI (Thermo Fisher Scientific) according to manufacturer's instructions. Cells harvested from lentiviral infection were subjected to Annexin V (2.5 µL) and PI (40 ng/mL, 0.5 µL) staining, followed by flow cytometric analysis using BD LSRFortessa cell analyzer with excitation/emission spectra of 494 nm/518 nm for FITC and 535 nm/617 nm for PI.
# FIGURE 2 Specific loss of XIAP expression, not c-IAP1, is required for mediating apoptosis in high-risk neuroblastoma cells. A, Summary of IAP antagonists’ efficacy in killing neuroblastoma cells. […] C, Graphical representation showing the fold change of caspase-3/7 activity relative to vehicle controls after treatment with 10 µmol/L of either A4, B3, or BV6 at indicated timings (data were expressed as mean ± SD of three independent experiments conducted in duplicates; *, P < 0.05). […]
# [2] = target: XIAP (NanoLuc-XIAP) (Homo sapiens, UniProt P98170); experiment: NanoBRET XIAP target engagement assay; format: binding; conditions: read-out: apparent intracellular affinity to XIAP (EC50), NanoBRET tracer displacement
# Source text: To better understand the mechanisms by which these compounds target XIAP in high-risk neuroblastoma, binding interactions between the antagonists and XIAP were first determined in BE(2)-C and KELLY cells using a NanoBRET quantitative target engagement assay. […] It was worth noting that BV6 bound more strongly to XIAP than A4 with the following apparent intracellular affinities determined—0.21 µmol/L (BV6) versus 10.7 µmol/L (A4) in BE(2)-C and 0.30 µmol/L (BV6) versus 9.1 µmol/L (A4) in KELLY (Fig. 3A). […]
# FIGURE 3 Binding and degradation of XIAP by A4 is necessary for targeting high-risk neuroblastoma cells. […] BRET signal was measured at 2 hours after treatment using a Tecan Infinite 200 Pro equipped with NanoBRET dual-filters (donor 460 nm and acceptor 618 nm) and determined via the formula (BRET ratio = values at 618 nm/values at 460 nm). […] Cells were treated with increasing dose of A4 or BV6 and luminescence was measured continuously in real time for 2 hours. Luminescence values were normalized to DMSO vehicle control and degradation profiles were generated using GraphPad Prism. Values were expressed as mean ± SD of three independent experiments conducted in duplicates. […]
# The quantification and determination of XIAP target engagement with test compounds was performed via Promega’s NanoBRET XIAP target engagement assay. […]
smiles,measurement,setting,value
COC(=O)c1[nH]c2ccc(Cl)cc2c1NC(=O)CN1CCN(Cc2ccccc2)CC1,"apoptosis (PARP and caspase-3 cleavage, caspase-3/7 activity)",[1],apoptosis was induced
same,EC50,[2]; BE(2)-C cells,10.7 µM
same,EC50,[2]; KELLY cells,9.1 µM
